{"source": "patent US5990096A", "about": "“Formulations containing hyaluronic acid” (priority 1992, dated 1999)", "system": "Fisher Bladder Carcinoma", "details": "rat, in vivo, iv", "data": [{"substance": "hyaluronic acid", "values": [{"measurement": "Effect on 5-FU uptake in tumor tissue", "value": "HA can enhance 5-FU uptake in tumor tissue"}]}]}
